Tests used:
[1] = target: HLA DQA1*0102:DQB1*0602, P01920; assay: REVEAL class II binding assay (cell-free)
HLA DQA1*0101:DQB1*0501 = assay: REVEAL class II binding assay (cell-free)

Binder | REVEAL 0 hrs (% of positive control signal) [1] | REVEAL 24 hours (% of positive control signal) [1] | Stability index [1] | REVEAL 0 hrs (% of positive control signal) (HLA DQA1*0101:DQB1*0501) | REVEAL 24 hours (% of positive control signal) (HLA DQA1*0101:DQB1*0501) | Stability index (HLA DQA1*0101:DQB1*0501)
MNLPSTKVSWAAVTL (modifications not checked) [Peptide #10 (Orexin DQB1*0602 fragment)] | 1.7 | 0.3 | 0.2 | 0.2 | 0.1 | 0.1
MNLPSIKVSWAAVTL (modifications not checked) [Peptide #11 (Mutant of #10, Thr→Ile)] | 47.5 | 20.8 | 9.6 | 18 | 2.1 | 1.4
MNLPSMKVSWAAVTL (modifications not checked) [Peptide #12 (Mutant of #10, Thr→Met)] | 12.3 | 3.7 | 1.7 | 2.5 | 0.8 | 0.4
GAGNHAAGILTLGKR (modifications not checked) [Peptide #14 (Orexin fragment HCRT56-68)] | 0.1 | 0.1 | 0.1 | 0 | 0 | 0
ASGNHAAGILTMGRR (modifications not checked) [Peptide #15 (Orexin fragment HCRT87-99)] | 0.2 | 0.2 | 0.3 | 0.1 | 0.1 | 0.1

Source: patent publication US20190184007A1, “AVOIDING NARCOLEPSY RISK IN INFLUENZA VACCINES” (priority 2013, published 2019)
